Reference: PubChem BioAssay AID652054 (National Center for Advancing Translational Sciences (NCATS), 2013)
The campaign covered roughly 360,000 compounds. About 9,100 (2.5%) were called active. All entries are inconclusive by the source's own rule. Clear calls are listed elsewhere. Rule as the data show it: active = max response below about -50%; inconclusive = no clear call, values can overlap the other calls; inactive = above that.

The chains behind the UniProt entries cited, without tags or fusion partners.
UniProt P35462, whole entry, looked up: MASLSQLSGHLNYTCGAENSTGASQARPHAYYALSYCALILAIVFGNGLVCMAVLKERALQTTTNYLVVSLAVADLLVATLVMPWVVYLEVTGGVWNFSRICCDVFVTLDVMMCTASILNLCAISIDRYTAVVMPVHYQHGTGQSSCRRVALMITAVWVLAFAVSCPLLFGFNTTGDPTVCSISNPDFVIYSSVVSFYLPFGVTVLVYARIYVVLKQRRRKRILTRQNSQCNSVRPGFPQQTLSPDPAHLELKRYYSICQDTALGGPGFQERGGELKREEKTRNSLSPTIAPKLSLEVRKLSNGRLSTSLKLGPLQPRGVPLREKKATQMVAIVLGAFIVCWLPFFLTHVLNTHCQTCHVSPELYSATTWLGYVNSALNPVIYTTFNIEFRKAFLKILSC

target: D(3) dopamine receptor (Homo sapiens) (UniProt P35462); assay: qHTS of D3 Dopamine Receptor Antagonist: qHTS; conditions: D3R cells, DiscoveRx beta-arrestin luminescence, antagonist mode; hits give low values
From the text: D3 DARs represent a very important target for the treatment of several neuropsychiatric disorders. Indeed, one of the most promising therapeutic applications for the D3 DAR is in the area of addiction and related disorders. […] These findings have been observed with a number of addictive substances including cocaine, amphetamine, nicotine, and alcohol. […] Antagonism of the D3 DAR may also be therapeutic in the treatment of schizophrenia or psychosis. […] Since the D3 DAR is expressed in areas of the CNS associated with the control of mood and emotion, it has been hypothesized that selective antagonism of the D3 DAR may be effective in treating psychosis without inducing the motor side effects typically seen with D2 DAR antagonists.
This part of the project aims to discover novel antagonist.
NIH Chemical Genomics Center [NCGC]
NIH Molecular Libraries Probe Centers Network [MLPCN]
Assay Submitter (PI): David Sibley, NINDS
Freshly passaged cells are plated in 1536 well white, solid bottom plates at a density of 1500 cells/well in 3microl of complete media. After an overnight incubation at 37 degrees C in 5% CO2, cells are loaded with 23nl of test compound from the compound library (as well as dopamine controls) using a 1536 pintool and incubated at 37 degrees C for 90 minutes. Two microliters of DiscoveRx reagent is then added to all cells, and they are incubated for an additional 30 - 60 minutes at room temperature. Following incubation, luminescence is measured on a ViewLux CCD-based luminometer reader using a 20 sec exposure time.
% is scaled to controls: 0 for no effect and ±100 for the full control effect.

| SMILES | max response, negative = inhibition |
| --- | --- |
| O=[N+]([O-])c1cc([N+](=O)[O-])c(-c2ccn[nH]2)s1 | inconclusive: -36.1% |
| [N-]=[N+]=NC1CCCCC1NC(=O)c1cc([N+](=O)[O-])cc([N+](=O)[O-])c1 (stereo not given) | inconclusive: -43% |
| CN(CCCl)Cc1cc(Cl)c(NC2=NCCN2)c(Cl)c1 | inconclusive: -32.8% |
| O=C(NC(Sc1ccncn1)C(Cl)(Cl)Cl)c1ccccc1 (stereo not given) | inconclusive: -32.2% |
| O=[N+]([O-])c1cccc2n[nH]nc12 | inconclusive: -48% |
